Only a part is listed here, and it is no random draw. The source made the active and inactive calls.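 How the source made its calls: active means activation above its plate's cutoff, the mean activation of test wells on that plate plus 3 SD (cut at about 19% in these data); inactive means the rest.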

This test deals with transient receptor potential cation channel N1 (TRPN1/NompC), Danio rerio. Nature of the test: zebrafish TRPN1 channel agonists, primary screen, cell-based, HEK293, calcium fluorescence (AID 1424).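 Further: 0% = DMSO alone and 100% = 87 µM carbachol.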 The conditions noted are these: HEK293 zebrafish TRPN1-YFP, Fluo-8 calcium fluorescence; at 3 µM; active compounds read high; 100% = response to 87 µM carbachol. A digest of the protocol:
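Material: zebrafish TRPN1-YFP in HEK293 cells; Doses: single test compound dose, 3 µM nominal, 0.3% DMSO; Timing: dye loading 1 h at 37 °C, then 30 min room temperature; Technique: intracellular calcium fluorescence with Fluo-8; Benchmarks: high carbachol 87 µM, low DMSO alone.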
As to `O=C(NCC1(N2CCCCC2)CCCCC1)c1cccc([N+](=O)[O-])c1`, the activation is inactive: 2.52%. With `N#CC1(Nc2ccccc2)CCN(CCc2ccccc2)CC1` the figure was inactive: 0.48%.

On to `CN1CCN(CCOC(=O)C(O)(c2ccccc2)c2ccccc2)CC1`, for which the activation was inactive: 0.6%.

`COc1ccc(NC2CCN(C(=O)OC(C)(C)C)CC2)cc1`: the activation is inactive: 0.91%. As for `O=C(NCC1(N2CCOCC2)CCCCC1)c1cc(=O)[nH]c2ccccc12`, the activation is inactive: 0.92%.

Regarding `COc1ccc(CN(CCCl)CCCl)cc1Cl`, the activation was inactive: -0.93%.

Take `CN(C)c1cccc(C(=O)NCC2(N3CCCCC3)CCCCC2)c1`: the activation is inactive: 0.13%. With `CC(C)c1ccc(NC2CCN(C(=O)OC(C)(C)C)CC2)cc1` the figure was inactive: 0.85%; with `CN1CCC(Nc2cccc(F)c2)CC1`, inactive: -0.17%; with `COc1ccc(C(=O)NCC2(N3CCCCC3)CCCCC2)c(OC)c1OC`, inactive: 0.68%. For the molecule `O=C(NCC1(N2CCOCC2)CCCCC1)c1cc2ccccc2o1`, the activation is inactive: -0.72%.

In the case of `CCOC(=O)N1CCC(Nc2ccc(OC)cc2)CC1`, the activation was inactive: -0.42%.

Turning to `O=C(OC1CN2CCC1CC2)C1c2ccccc2Oc2ccccc21` (centres undefined), the activation was inactive: 1.23%.

Regarding `N#CC1(Nc2ccccc2)CCN(Cc2ccccc2)CC1`, the activation is inactive: 1.9%.

As for `CCOc1ccc(C)cc1CN(CCCl)CCCl`, the activation is inactive: -0.65%.

Turning to `COc1ccc(NC2CCN(CCc3ccccc3)CC2)c(OC)c1`, the activation is inactive: -0.81%.

For the molecule `Cc1ccc(OCC(C)C)c(CN(CCCl)CCCl)c1`, the activation was inactive: 0.55%. With `CCN1CCC(Nc2cccc(F)c2)CC1` the figure was inactive: 0.37%; with `CN(C)c1ccc(C(=O)NCC2(N3CCCCC3)CCCCC2)cc1`, inactive: -0.72%. With `CCOc1ncccc1C(=O)NCC1(N2CCOCC2)CCCCC1` the figure was inactive: 0.15%; with `CC(C)(C)OC(=O)N1CCC(Nc2ccccc2)CC1`, inactive: -0.99%; with `CCC(CO)(C(=O)OC1CN2CCC1CC2)c1ccccc1` (centres undefined), inactive: 0.91%. Take `COc1cc(OC)cc(C(=O)NCC2(N3CCOCC3)CCCCC2)c1`: the activation is inactive: -0.72%.

`CCCOc1ccc(C)cc1CN(CCCl)CCCl`: the activation was inactive: -1.11%.

In the case of `COc1ccc(C(=O)NCC2(N3CCOCC3)CCCCC2)cc1OC`, the activation was inactive: -0.49%. For the molecule `N/C(=N\O)c1c(N)no[n+]1[O-]`, the activation is inactive: 1.82%. In the case of `O=C(OC1CN2CCC1CC2)C1c2ccccc2C=Cc2ccccc21` (centres undefined), the activation was inactive: -0.45%. `N#Cc1ccc(C(=O)NCC2(N3CCCCC3)CCCCC2)cc1`: the activation is inactive: 2.35%. With `c1ccc(CN2CCC(Nc3ccccc3)CC2)cc1` the figure was inactive: 0.45%.

These data come from PubChem BioAssay AID1424 (The Scripps Research Institute Molecular Screening Center, 2008).
